Test results: PubChem BioAssay AID1645870 (National Center for Advancing Translational Sciences (NCATS), 2021)
Only a part is listed here, and it is no random draw. Inconclusive results are not listed. Where a call stands in place of a potency, no number is given. Active and inactive are the calls of the source. Calls follow the shape of the dose curve; as a rule, active = well fitted inhibition curve with a large enough effect; inconclusive = small, poorly fitted or top-dose-only effect; inactive = flat fitted curve, though single readings scatter.

By UniProt entry, the sequences of proteins in these tests, tags left out. Where a name states a change or a piece, a line headed by the entry shows the natural chain unless it says otherwise.
UniProt Q9BV86: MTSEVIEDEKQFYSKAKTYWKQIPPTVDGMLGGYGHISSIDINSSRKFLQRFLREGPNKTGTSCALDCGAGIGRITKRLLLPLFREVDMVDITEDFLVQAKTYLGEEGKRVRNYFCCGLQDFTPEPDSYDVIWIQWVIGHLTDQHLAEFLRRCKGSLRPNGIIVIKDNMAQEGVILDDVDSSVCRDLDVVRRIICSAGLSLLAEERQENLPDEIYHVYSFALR

What follows are compounds tested against N-terminal Xaa-Pro-Lys N-methyltransferase 1 (Homo sapiens) (UniProt Q9BV86) (assay: Primary qHTS for Inhibitors of N-terminal methyltransferase 1 (NTMT1): MTaseGlo Assay). Conditions: NTMT1 MTase-Glo SAH luminescence, purified enzyme; series mostly up to 57.5 µM.
Description: Assay Submitter (PI): Rong Huang Ph.D.
Purdue University, West Lafayette, IN 47907
The N-terminal methytransferase 1 is the first methyltransferase that methylates protein alpha-N-amines and plays an important role in regulating cell mitosis, chromatin interactions and DNA repair. It is observed to be over-expressed in various cancer patient tissues like malignant melanoma and colorectal cancer tissues. Knockdown of NTMT1 in cancer cells causes cell mitotic defects and enhances sensitivity to DNA damaging chemotherapeutics. […] These critical cellular processes in which NTMT1 is implicated, coupled with emerging links to cellular dysfunction, strengthen the inference that NTMT1 is a compelling novel anticancer target. Progress have been made in understanding the molecular properties of NTMT1 and the biological consequences of protein alpha-N-terminal methylation, but there are no specific small molecule probes available for NTMT1 to fully characterize its MTase activity. To address this unmet need, a panel of assay is created and established to enable quantitative high-throughput screening (qHTS) for novel, potent, and selective small molecule NTMT1 inhibitors. Two orthogonal qHTS that use different reagents (ThioGlo vs. MTaseGlo) are developed for primary robotic screening against the NCATS chemical library of more than 400,000 small molecules. Identified inhibitors are reacquired, validated, and further characterized.
MTaseGlo Assay is a luminescence screen that measure the activity of methyltransferases based on the reaction product S-adenosyl homocysteine (SAH). The substrate SAM is converted to SAH upon enzyme activation. MTase-Glo reagent and detection solution convert SAH to ATP and measure the light from the luciferase reaction.
Materials: NTMT1 enzyme, substrate SPKRIA, control peptide RCC1-6 is provided by the Huang laboratory.
SEQUENCE No. (e.g., 1, 2, 3, etc.); […] (e.g., Cells, Incubation, Reagent, etc.); VALUE; DESCRIPTION
1; Enzyme; 3 uL; Dispense enzyme mixture (final concentrations of 125 nM NTMT1 and 100 uM SAM) into Greiner 1536-well white / solid bottom assay plate (Greiner Bio One, Monroe, NC).
2; Compounds; 23 nL; Compounds and controls were transferred via a Kalypsys Pin Tool (Wako USA) equipped with a 1536-slotted pin array (Wako Automation, Richmond, VA)
3; Incubation; 15 min; Incubate at room temperature
4; Substrate; 1 uL; Dispense 1 uL of substrate at final concentration of 1 uM. Buffer solution was dispensed in control wells. The assay plate was covered with metal lids.
5; Incubation; 30 min; Incubate at room temperature, protected from lights.
6; Reagent; 1 uL; Dispensed 5x MTase-Glo detection reagent (R) into the assay plate. The plate was covered with metal lids.
7; Incubation; 30 min; Incubate the assay plates at room temperature in the dark to allow for SAH to be converted to ADP.
8; Reagent; 5 uL; Dispense 5 uL of 1x MTase-Glo Detection Solution (R) to allow for ADP to be converted to ATP which was then detected with a luciferase reaction.
9; Centrifuge; 15 sec; Centrifuge the assay plate for 15 seconds at 1000 RPM.
10; Incubation; 30 min; Assay plates were incubation at room temperature in the dark.
11; Detection; Luminescence; Plates were read on ViewLux detector (PerkinElmer). Data were normalized to no-enzyme (0% activity) and no-inhibitor (DMSO; 100%) controls, and the resulting percent inhibition data were fitted to a 4-parameter Hill equation using GraphPad Prism.
Also: nearly all actives have a fitted effect of over 65% in size.
Potency is read from the fitted curve at half-maximal effect.

| Compound | Potency |
| --- | --- |
| CN(C(=O)Cc1ccc(Cl)c(Cl)c1)[C@H]1CCCC[C@H]1N1CCCC1 | inactive |
| CCNC(C)Cc1ccc2c(c1)OCO2 (centres undefined) | inactive |
| N[C@@H](Cc1ccc([N+]([O-])(CCCl)CCCl)cc1)C(=O)O | active: 79.4 µM |
| CN(C(=O)Cc1ccccc1)[C@H]1CC[C@@]2(CCCO2)C[C@@H]1N1CCCC1 | inactive |
| CN(C)C1(c2ccccc2)CCC2(CC1)OCCc1c2[nH]c2ccc(F)cc12 (centres undefined) | inactive |
| CCn1c(=O)n([C@@H]2CCN(CC3CCCCCCC3)C[C@H]2CO)c2ccccc21 | inactive |
| NC(=O)Nc1ccc([As](=O)(O)O)cc1 | inactive |
| CN(C(=O)Cc1ccc(Cl)c(Cl)c1)[C@H]1CC[C@@]2(CCCO2)C[C@@H]1N1CCCC1 | inactive |
| CCn1c(=O)n([C@@H]2CCN(CC3CCCCCCC3)C[C@@H]2CO)c2ccccc21 | inactive |
